Measurements taken from patent US12637428B2, “Isoquinoline derivatives as SIK2 inhibitors” (Cancer Research Technology Limited, priority 2019, dated 2026).

By UniProt entry, the sequences of proteins in these tests, tags left out. Residues count along the entry.
UniProt P29317, 24-976 limits assumed: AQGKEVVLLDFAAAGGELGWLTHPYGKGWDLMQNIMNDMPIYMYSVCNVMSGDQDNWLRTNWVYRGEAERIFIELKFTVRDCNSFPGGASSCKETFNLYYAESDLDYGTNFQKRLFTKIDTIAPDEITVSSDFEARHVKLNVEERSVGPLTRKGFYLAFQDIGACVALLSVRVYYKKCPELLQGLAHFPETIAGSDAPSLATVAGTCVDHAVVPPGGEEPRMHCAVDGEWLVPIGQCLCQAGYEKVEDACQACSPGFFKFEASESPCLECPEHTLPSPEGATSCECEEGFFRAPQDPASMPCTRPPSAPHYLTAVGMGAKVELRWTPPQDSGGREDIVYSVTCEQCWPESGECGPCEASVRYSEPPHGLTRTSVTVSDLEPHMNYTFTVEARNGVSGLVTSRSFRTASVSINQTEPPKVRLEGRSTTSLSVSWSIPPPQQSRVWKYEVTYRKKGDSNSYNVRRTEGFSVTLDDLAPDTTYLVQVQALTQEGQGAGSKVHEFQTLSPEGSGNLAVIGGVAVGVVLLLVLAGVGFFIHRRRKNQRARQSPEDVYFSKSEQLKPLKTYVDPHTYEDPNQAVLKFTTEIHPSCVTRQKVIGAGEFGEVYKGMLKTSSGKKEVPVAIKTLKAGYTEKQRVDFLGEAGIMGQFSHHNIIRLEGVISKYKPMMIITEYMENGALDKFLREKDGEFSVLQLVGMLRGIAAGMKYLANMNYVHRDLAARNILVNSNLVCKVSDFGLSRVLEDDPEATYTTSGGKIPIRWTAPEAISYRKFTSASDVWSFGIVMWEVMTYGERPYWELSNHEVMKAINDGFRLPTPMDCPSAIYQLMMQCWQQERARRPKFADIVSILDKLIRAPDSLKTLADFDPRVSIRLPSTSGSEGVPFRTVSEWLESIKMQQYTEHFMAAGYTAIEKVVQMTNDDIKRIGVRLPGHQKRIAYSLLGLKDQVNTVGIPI
UniProt P57059, whole entry: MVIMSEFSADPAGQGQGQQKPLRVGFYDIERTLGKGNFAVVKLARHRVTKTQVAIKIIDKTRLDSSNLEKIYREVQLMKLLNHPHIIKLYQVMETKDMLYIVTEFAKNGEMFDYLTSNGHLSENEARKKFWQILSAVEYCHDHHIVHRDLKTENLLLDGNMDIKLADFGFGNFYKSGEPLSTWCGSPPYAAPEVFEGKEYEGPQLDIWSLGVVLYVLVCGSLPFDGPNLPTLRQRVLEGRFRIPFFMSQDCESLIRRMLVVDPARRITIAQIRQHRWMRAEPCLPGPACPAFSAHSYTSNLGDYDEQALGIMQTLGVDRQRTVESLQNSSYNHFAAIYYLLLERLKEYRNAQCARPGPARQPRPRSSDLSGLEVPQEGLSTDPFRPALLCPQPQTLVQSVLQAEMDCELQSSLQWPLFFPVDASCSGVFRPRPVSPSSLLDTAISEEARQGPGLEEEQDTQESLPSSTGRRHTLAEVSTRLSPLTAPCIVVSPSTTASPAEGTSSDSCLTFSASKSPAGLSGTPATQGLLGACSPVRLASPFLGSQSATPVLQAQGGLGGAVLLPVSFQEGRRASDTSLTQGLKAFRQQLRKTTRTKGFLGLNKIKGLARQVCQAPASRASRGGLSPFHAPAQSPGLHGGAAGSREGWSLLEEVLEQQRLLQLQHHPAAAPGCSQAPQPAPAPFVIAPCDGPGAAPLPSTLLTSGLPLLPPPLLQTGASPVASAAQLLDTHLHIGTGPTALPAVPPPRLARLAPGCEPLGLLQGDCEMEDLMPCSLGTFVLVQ
UniProt Q9Y2K2, whole entry: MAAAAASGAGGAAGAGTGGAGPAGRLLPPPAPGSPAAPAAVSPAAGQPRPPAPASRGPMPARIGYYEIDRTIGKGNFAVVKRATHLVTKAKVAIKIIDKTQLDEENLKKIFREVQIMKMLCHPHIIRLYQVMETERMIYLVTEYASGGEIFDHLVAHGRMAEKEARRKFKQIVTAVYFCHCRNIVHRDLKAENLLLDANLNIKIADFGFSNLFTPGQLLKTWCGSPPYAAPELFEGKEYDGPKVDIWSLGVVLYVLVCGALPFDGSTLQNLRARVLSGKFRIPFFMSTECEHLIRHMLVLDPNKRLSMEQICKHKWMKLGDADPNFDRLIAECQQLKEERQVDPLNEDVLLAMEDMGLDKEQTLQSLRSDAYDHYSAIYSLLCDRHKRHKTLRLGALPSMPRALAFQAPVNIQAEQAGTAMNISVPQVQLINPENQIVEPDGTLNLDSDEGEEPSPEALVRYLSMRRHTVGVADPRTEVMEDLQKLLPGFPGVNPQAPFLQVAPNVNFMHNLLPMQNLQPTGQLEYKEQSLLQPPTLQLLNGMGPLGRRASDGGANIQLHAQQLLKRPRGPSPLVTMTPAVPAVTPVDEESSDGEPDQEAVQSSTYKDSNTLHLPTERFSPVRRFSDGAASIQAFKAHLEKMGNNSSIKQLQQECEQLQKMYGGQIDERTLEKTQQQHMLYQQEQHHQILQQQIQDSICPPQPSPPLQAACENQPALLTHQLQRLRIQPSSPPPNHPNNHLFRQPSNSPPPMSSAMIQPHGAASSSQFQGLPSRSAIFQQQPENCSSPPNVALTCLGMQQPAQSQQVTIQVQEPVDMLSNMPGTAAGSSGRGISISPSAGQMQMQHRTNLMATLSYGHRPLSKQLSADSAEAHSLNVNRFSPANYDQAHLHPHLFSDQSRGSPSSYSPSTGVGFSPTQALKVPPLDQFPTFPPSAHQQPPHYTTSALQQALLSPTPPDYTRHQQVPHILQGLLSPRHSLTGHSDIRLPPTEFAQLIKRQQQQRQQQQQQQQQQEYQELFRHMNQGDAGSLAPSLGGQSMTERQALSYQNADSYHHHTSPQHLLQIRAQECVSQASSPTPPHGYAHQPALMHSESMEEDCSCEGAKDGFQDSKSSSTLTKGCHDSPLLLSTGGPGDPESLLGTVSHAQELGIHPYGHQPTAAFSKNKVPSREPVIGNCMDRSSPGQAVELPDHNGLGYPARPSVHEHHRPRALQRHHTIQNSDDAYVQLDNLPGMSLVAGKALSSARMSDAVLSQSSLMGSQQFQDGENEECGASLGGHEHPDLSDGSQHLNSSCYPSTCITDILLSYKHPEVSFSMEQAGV
UniProt Q9H0K1, whole entry: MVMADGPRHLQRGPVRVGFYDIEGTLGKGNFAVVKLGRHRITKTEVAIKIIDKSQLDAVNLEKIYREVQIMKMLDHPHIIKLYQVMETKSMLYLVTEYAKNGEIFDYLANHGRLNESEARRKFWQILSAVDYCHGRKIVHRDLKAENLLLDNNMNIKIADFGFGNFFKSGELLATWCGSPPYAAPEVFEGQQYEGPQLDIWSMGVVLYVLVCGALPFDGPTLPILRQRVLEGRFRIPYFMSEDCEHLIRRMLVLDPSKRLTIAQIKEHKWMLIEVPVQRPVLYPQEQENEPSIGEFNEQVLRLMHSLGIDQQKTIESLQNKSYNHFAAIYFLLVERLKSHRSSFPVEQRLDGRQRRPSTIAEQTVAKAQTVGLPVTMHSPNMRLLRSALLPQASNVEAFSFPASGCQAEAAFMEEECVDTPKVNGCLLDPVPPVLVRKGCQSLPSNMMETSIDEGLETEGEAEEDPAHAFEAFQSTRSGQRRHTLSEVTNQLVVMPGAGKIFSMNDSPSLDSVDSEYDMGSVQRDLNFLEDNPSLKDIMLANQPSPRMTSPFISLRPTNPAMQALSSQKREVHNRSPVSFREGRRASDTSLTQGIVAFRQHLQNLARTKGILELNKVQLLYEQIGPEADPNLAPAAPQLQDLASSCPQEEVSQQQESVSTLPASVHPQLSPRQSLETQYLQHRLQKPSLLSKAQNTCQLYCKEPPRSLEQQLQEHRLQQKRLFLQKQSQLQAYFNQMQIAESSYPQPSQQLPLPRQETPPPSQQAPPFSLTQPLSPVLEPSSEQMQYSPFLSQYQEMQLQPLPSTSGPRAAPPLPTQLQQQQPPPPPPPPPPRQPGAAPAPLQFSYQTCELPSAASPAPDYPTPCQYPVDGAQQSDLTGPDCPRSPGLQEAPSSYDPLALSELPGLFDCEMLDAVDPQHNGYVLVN
UniProt P00519, whole entry: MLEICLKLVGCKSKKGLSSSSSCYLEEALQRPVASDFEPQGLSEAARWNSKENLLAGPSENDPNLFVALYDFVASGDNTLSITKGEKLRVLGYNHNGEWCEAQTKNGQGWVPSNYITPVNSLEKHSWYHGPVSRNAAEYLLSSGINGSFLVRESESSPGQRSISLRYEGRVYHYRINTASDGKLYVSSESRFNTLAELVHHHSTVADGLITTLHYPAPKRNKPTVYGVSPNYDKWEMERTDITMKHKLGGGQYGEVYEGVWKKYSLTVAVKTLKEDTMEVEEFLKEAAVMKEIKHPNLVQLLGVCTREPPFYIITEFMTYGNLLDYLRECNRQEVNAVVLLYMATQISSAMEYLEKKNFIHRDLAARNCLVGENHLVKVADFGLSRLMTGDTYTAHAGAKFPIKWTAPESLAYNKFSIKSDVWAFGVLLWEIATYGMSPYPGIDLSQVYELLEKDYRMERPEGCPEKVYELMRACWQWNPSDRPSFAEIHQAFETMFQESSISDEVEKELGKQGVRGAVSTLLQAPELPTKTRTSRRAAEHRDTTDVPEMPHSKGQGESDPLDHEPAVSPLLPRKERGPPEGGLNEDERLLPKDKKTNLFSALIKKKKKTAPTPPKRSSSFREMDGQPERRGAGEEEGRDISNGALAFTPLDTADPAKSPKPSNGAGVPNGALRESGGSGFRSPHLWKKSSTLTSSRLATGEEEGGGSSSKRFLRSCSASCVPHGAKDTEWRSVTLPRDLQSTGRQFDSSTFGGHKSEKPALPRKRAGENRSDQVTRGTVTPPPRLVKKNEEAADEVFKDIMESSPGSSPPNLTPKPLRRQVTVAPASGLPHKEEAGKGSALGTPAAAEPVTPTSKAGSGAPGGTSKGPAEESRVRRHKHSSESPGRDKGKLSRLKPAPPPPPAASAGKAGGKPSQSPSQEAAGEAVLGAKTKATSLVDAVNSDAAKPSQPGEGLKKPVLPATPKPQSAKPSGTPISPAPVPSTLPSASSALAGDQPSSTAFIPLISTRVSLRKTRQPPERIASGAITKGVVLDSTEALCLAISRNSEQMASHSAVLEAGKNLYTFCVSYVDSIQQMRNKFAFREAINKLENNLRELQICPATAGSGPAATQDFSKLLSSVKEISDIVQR
UniProt P12931, whole entry: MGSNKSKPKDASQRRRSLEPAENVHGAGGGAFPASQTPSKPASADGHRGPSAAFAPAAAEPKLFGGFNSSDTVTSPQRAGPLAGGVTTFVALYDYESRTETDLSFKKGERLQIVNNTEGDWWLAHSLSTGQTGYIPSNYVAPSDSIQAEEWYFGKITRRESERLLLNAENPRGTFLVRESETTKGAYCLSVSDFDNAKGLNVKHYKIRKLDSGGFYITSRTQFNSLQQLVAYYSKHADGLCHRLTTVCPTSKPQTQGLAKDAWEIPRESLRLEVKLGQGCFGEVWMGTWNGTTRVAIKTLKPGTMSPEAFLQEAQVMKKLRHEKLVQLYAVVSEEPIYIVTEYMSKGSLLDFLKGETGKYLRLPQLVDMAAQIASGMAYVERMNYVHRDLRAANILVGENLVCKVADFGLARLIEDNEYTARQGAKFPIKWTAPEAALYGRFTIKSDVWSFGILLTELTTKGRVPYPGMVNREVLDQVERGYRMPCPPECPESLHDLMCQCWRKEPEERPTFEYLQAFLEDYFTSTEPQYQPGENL

Experiments:
[1] = target: EPHA2 (Homo sapiens, UniProt P29317); experiment: EPHA2 kinase assay, IMAP fluorescence polarization; details: read-out: EPHA2 - AVERAGE Ki, 50 or 100 μM ATP, Tris pH 8.5
Procedure: (§1) SIK2, SIK1, SIK3, Abl, Src and EPHA2 Kinase Assays
(§2) SIK2, SIK1, SIK3, Abl, Src and EPHA2 assays were performed using an IMAP fluorescence polarization assay format (Molecular Devices Inc.). 0.6-13 nM of each kinase (Life Technologies) was incubated for 60 min at room temperature with 100 nM of either FAM-Abltide, FAM-Srctide or FAM-HDAC protein derived peptide (synthesized by Alta Biosciences, Birmingham UK). Assays were carried out in the presence of 50 or 100 μM ATP in either 20 mM Tris buffer (pH 7.2) containing 4 mM MgCl2, 0.2% BSA and 2 mM DTT (SIK2, SIK1, SIK3, Abl, Src); or 20 mM Tris buffer (pH 8.5) containing 20 mM MgCl2, 0.5% BSA, 0.2% Triton and 5 mM DTT (EPHA2). Typically, dose response analyses were performed over concentration ranges from 0.00005-1 μM. Reactions were stopped by adding 2 assay volumes of 0.25% (v/v) IMAP binding reagent in either an 85:15 ratio (SIK2, SIK1, SIK3, Abl, EPHA2) or 30:70 ratio (Src) of IMAP binding buffers A and B (Molecular Devices). After incubation to allow the detection reagents to bind to the phosphorylated peptide, fluorescence polarization was measured on a Tecan Infinite plate reader at excitation (470 nm) and emission (530 nm) wavelengths. Inhibition was calculated using no inhibitor and no enzyme controls as 0 and 100% inhibition, respectively. […]

[2] = target: SIK1 (Homo sapiens, UniProt P57059); experiment: SIK1 kinase assay, IMAP fluorescence polarization; details: read-out: SIK1 - AVERAGE Ki, 50 or 100 μM ATP
Procedure: as §1, §2

[3] = target: SIK3 (Homo sapiens, UniProt Q9Y2K2); experiment: SIK3 kinase assay, IMAP fluorescence polarization; details: read-out: SIK3 - AVERAGE Ki, 50 or 100 μM ATP
Procedure: as §1, §2

[4] = target: SIK2 (Homo sapiens, UniProt Q9H0K1); experiment: SIK2 kinase assay, IMAP fluorescence polarization; details: read-out: SIK2 - AVERAGE Ki, 50 or 100 μM ATP
Procedure: as §1, §2

[5] = target: Abl (Homo sapiens, UniProt P00519); experiment: Abl kinase assay, IMAP fluorescence polarization; details: read-out: Abl - AVERAGE Ki, 50 or 100 μM ATP
Procedure: as §1, §2

[6] = target: Src (Homo sapiens, UniProt P12931); experiment: Src kinase assay, IMAP fluorescence polarization; details: read-out: Src - AVERAGE Ki, 50 or 100 μM ATP
Procedure: as §1, §2

SMILES: Cc1cccc(Cl)c1-c1ccc2c(C(=O)NC3CCN(C)CC3)c(N)ncc2c1
- Ki [1]: 124 nM
- Ki [2]: 6.21 nM
- Ki [3]: 72.5 nM
- Ki [4]: 4.41 nM
- Ki [5]: 355 nM
- Ki [6]: 193 nM
